According to patent US20250049939A1, “NOVEL FLT3 ANTIBODIES AND ANTIBODY-DRUG-CONJUGATES BASED THEREON, THERAPEUTIC METHODS AND USES THEREOF IN COMBINATION WITH TYROSINE KINASE INHIBITORS” (TUBULIS GmbH, priority 2021, published 2025):

System: FLT3 cell surface expression in MOLM-13 cells
Experiment: FLT3 cell surface expression in MOLM-13 after kinase inhibitors, flow cytometry
Type: cell-based, human
Details: 6, 24, 48 and 72 h incubation
Protocol: Cells were analyzed in flow cytometry after treatment. Dotted line represents MFI ratio of untreated cells. Mean±s.d. of n=2 is depicted. […] Grey triangles indicate increasing drug concentrations. […] Mean±standard deviation is depicted.

For `CC(C)(C)c1cc(NC(=O)Nc2ccc(-c3cn4c(n3)sc3cc(OCCN5CCOCC5)ccc34)cc2)no1` [Quizartinib], the “FLT3 cell surface expression” value was “increase of FLT3 cell surface expression”.
